This test has as its target hOX1R (Homo sapiens, UniProt O43613). The experiment in a line: Orexin 1 receptor binding assay. To be noted: OX1R Ki, mean of replicates.

The chains behind the UniProt entries cited, without tags or fusion partners.
UniProt O43613, whole entry: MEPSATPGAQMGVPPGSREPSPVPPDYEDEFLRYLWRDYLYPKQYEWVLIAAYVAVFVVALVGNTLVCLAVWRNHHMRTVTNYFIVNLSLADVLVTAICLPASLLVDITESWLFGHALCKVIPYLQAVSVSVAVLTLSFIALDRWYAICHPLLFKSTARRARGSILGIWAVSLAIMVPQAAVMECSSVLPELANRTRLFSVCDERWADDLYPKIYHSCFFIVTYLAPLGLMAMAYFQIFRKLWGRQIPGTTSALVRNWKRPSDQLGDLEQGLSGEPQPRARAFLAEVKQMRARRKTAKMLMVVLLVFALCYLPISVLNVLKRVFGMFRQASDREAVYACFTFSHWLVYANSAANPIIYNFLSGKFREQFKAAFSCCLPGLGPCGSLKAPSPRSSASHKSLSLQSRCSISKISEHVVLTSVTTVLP

Among the data in paper PMC3927067 (Journal of Computer-Aided Molecular Design, 2014) are Ki values, retold here.

A word on the Ki: it is the equilibrium dissociation constant of an inhibitor or competing ligand from its target. A high value points to lower affinity. In turn, `Cc1ccc(-n2nccn2)c(C(=O)N2CCN(c3nc4cc(Cl)ccc4o3)CC[C@H]2C)c1` [Compound 7, Suvorexant] registered an inhibitory constant (Ki) of 0.54 nM.
